Screens from PubChem.
Sampled rows, rich in hits. Any-hit rate of the full collection: about 0.67%.
Rango dissoc inh – inhibitors of RanGTP-induced Rango-importin beta complex dissociation | O95149+P62826 | Biochemical FRET Rango-importin beta, RanGTP-induced dissociation | Potency, µM (highest dose often 46.1 µM), inactives show at the highest dose activity change, negative = inhibition | 0.071% of 340,000 active; note: % of control where 0% means no effect; nearly all actives have a fitted effect of over 45% in size
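Compounds preincubate 5 min with complex of recombinant Rango and importin beta in PBS with 1 mM DTT. Ran (0.6 uM) loaded with 2 mM GTP plus 0.2 uM RCC1 starts dissociation; FRET is recorded 45 min later.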
gsp antag – gsp mutant antagonism. 0.4% of 340,000 active. gsp-mutant cells, cAMP HTRF, 30 min. Potency, µM (highest dose often 76.9 µM), inactives show at the top dose activity change, negative = inhibition, hits mostly inhibitors. AID 624288; calls by dose curve; cell line not stated here;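 note: intracellular cAMP measured with PDE inhibitor Ro 20-1724 present during compound exposure; % is set by controls: 0 for no effect and ±100 for the full control effect; nearly all actives have a fitted effect of over 65% in size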
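Cells in G418 medium, seeded 16-24 h, 37C; buffer exchange to DPBS + 1 mM CaCl2, 0.5 mM MgCl2, 0.05% BSA; cpds in DMSO + […] (300 uM stock), 30 min 37C; HTRF cAMP detection.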
Rango-impB inh – prevents formation of the Rango-importin beta complex | Q14974 | Rango CFP/YFP FRET sensor + importin beta, 45 min | Potency, µM (series often up to 92.2 µM), without a hit: at the top dose inhibition of complex formation | 0.031% of 340,000 active | AID 540263;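 note: 0% = DMSO wells and 100% = buffer wells lacking importin beta; nearly all actives have a fitted effect of over 15% in size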
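FRET biosensor Rango (snurportin 1 IBB between N-terminal EYFP and C-terminal Cerulean), 50 nM in PBS/1 mM DTT/0.02% Tween-20/0.1% BSA, preincubated 5 min RT with compound; 0.125 microM importin beta added, 45 min RT, CFP/YFP FRET ratio read.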
ASM inhibitor – human S-ASM enzyme inhibition; placental ASM, HMU-PC fluorogenic substrate, 60 min; Potency, µM (series often up to 57.5 µM), for the others: at the top dose activity change, negative = inhibition, actives largely listed as inhibitors; 0.006% of 340,000 active; active = well fitted inhibition curve with a large enough effect; inconclusive = small, poorly fitted or top-dose-only effect; inactive = no such curve, though single readings can be large or run the other way
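Human placenta-derived ASM preincubated with compound 10 min at room temperature, then reacted with 9 uM (final) fluorogenic HMU-PC substrate for 60 min at 37 C. Stop solution raises pH to 10; fluorescence read at Ex 386/Em 447 nm.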
gsp ag – agonists of gsp mutant (McCune-Albright syndrome); 0.13% of 340,000 active; AID 624287; Potency, µM (top dose mostly 76.9 µM), without a hit: top-dose activation (cAMP increase), hits mostly activators; gsp mutant cells, cAMP HTRF, 30 min; active = well fitted activation curve with a large enough effect; inconclusive = small, poorly fitted or top-dose-only effect, or another doubt; inactive = no such curve, though single readings can be large or run the other way; cell line not stated here;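 note: phosphodiesterase inhibitor Ro 20-1724 added with compounds to block cAMP breakdown; nearly all actives have a fitted effect of over 60% in size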
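Cells in DMEM/10% FBS with G418 were pretreated with compounds in DMSO plus […] (300 uM stock) for 30 min at 37C. cAMP was measured by HTRF (cAMP-d2 plus anti-cAMP antibody-K) after 30 min at room temperature.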
* = called active by the depositor; i = inactive; ? = inconclusive; . = no result given; [ ] = another dose, or the depositor's remark. Unless noted, calls come from the whole dose curve. Potency is the fitted concentration of half-maximal effect.

SMILES	Rango dissoc inh	gsp antag	Rango-impB inh	ASM inhibitor	gsp ag
CN1CCS/C1=C\C=C1/SC(=S)N(CC(=O)O)C1=O	?	?	58µM*	-3%	-4%
CCN1C(=O)/C(=C/C=C2/SCCN2C)SC1=S	-18%	7%	9%	-7%	11%
C=CCN1C(=O)/C(=C\C=C2\N(C)c3ccccc3C2(C)C)SC1=S	-8%	-3%	9%	-6%	21%
CN1/C(=C\C=C2/SC(=S)N(CC(=O)O)C2=O)C(C)(C)c2ccccc21	?	-25%	23µM*	4%	-57%[15.4 µM]
O=C(COc1ccc2ccc(=O)oc2c1)Nc1cccc(S(=O)(=O)N2CCCCC2)c1	-9%	28µM*	-3%	23%	?
Cc1ccccc1C(=O)OCC(=O)Nc1cccc(S(=O)(=O)N2CCCCC2)c1	.	.	.	.	-2%
Cc1ccc(C)c(C(=O)OCC(=O)Nc2cccc(S(=O)(=O)N3CCCCC3)c2)c1	-6%	25µM*	0%	-2%	5%
CC(=O)c1c(C)[nH]c(C(=O)OCC(=O)Nc2cccc(S(=O)(=O)N3CCCC3)c2)c1C	0%	32µM*	-3%	-13%	-71%
CC(=O)c1ccc(N2CCN(C(=O)c3n[nH]c4ccccc34)CC2)cc1	17%	11µM*	2%	5%	-8%[15.4 µM]
O=C(COC(=O)c1c2ccccc2cc2ccccc12)Nc1ncc(C(F)(F)F)cc1Cl	-27%	-1%	?	i	25µM*
O=C(N/N=C/c1ccc(-c2cccc([N+](=O)[O-])c2)o1)c1ccc([N+](=O)[O-])cc1	-13%	.	4%	-9%	6%[15.4 µM]
O=C(N/N=C/c1ccc(-c2cccc([N+](=O)[O-])c2)o1)c1ccccc1O	17%	50µM*	5%	-3%	-23%
CCc1ccc(/C(C)=N/NC(=O)CNC(=O)/C=C/c2ccco2)cc1	-6%	3%	-3%	-11%	-6%[15.4 µM]
Cc1cc(-c2c(C)[nH]n(-c3ccc(Cl)cc3)c2=O)n[nH]1	6%	40µM*	0%	0%	-1%
OC(CN1CCN(c2cccc(C(F)(F)F)c2)CC1)c1c[nH]c2ccccc12 (stereo not drawn)	-3%	-14%	0%	0%	17%
O=C(O)c1ccc2c(c1)C(=O)N(C(Cc1ccc(O)cc1)C(=O)O)C2=O (stereo not drawn)	-2%	16%	2%	5%	-16%
Cc1n[nH]c(C)c1S(=O)(=O)N1CCCC(C(=O)N2CCN(c3ccc(Cl)cc3)CC2)C1 (stereo not drawn)	-12%	35µM*	4%	-8%	-45%
Cc1nn(C)c(C)c1S(=O)(=O)N1CCCC(C(=O)N2CCN(c3ccc(Cl)cc3)CC2)C1 (stereo not drawn)	-11%	?	1%	-8%	-1%
CCCCN(CC)C(=O)Cn1ncc2c3ccccc3n(CCC)c2c1=O	12%	-37%	-1%	44%	-3%[15.4 µM]
O=[N+]([O-])c1ccc(-c2nc(-c3cccs3)c(-c3cccs3)[nH]2)cc1	-17%	?	9.2µM*	-24%	24%[15.4 µM]
O=[N+]([O-])c1cccc(-c2nc(-c3cccs3)c(-c3cccs3)[nH]2)c1	9%	-33%	-4%	-16%	1%
CSc1nsc2nc(=O)c(/C=C3\C=Nc4ccccc43)c(N)n12	?	32µM*	?	-12%	-4%
CC(=O)Nc1ccc(S(=O)(=O)Nc2nc3ccccc3nc2Cl)cc1	-6%	9%	0%	23%	7.9µM*
Cc1cc(F)ccc1S(=O)(=O)Nc1nc2ccccc2nc1Cl	0%	9%	?	35%	22µM*
Cc1ccc(C(C)(C)C)cc1S(=O)(=O)Nc1nc2ccccc2nc1Cl	1%	-6%	2%	61%	?

Next records.
SMILES	Rango dissoc inh	gsp antag	Rango-impB inh	ASM inhibitor	gsp ag
CC(=O)NC(CSc1cc(C)nc2ccc(Br)cc12)C(=O)O (stereo not drawn)	1%	25%	0%	-3%	2.8µM*
O=C1C=C(Nc2cccc(O)c2)CC(c2ccco2)C1 (stereo not drawn)	12µM*	9%	?	8%	14%
COc1ccc2[nH]c(C(=O)N3CCC(n4nccc4NC(=O)C4CC4)CC3)c(C)c2c1	9%	-4%	2%	-1%	-30%
CCNc1ccc(C(=O)OCC(=O)N(Cc2ccccc2)C(C)(C)C)cc1[N+](=O)[O-]	6%	?	-7%	-15%	-17%
CCC(=O)Oc1ccc(C/C(=N\O)c2ccc(O)cc2O)o1	-2%	5.6µM*	-1%	-4%	-20%
COC(=O)c1cc(CC(=O)c2ccc(O)cc2O)c(C)o1	-1%	-16%	0%	-1%	-22%
O=C(NCc1cccc(Br)c1)C1CC(c2ccccc2C(F)(F)F)=NO1 (stereo not drawn)	6%	8%	0%	1%	.
O=C(CN1CCN(C(=O)c2ccc(-c3nc4ccccc4s3)o2)CC1)Nc1ccc(F)cc1	-27%	45µM*	0%	-3%	-51%
Cc1cccc(NC(=O)CN2CCN(C(=O)c3ccc(-c4nc5ccccc5s4)o3)CC2)c1C	0%	?	?	-13%	-13%[15.4 µM]
O=C(CN1CCN(C(=O)c2ccc(-c3nc4ccccc4s3)o2)CC1)Nc1ccccc1Cl	-4%	18µM*	5%	-9%	-4%[15.4 µM]
CCC(C)c1ccc(N(C(=O)c2ccco2)C(C(=O)NC2CCCC2)c2cccnc2)cc1 (stereo not drawn)	22%	-29%	2%	-5%	-11%[15.4 µM]
CS(=O)(=O)N1CCC(Oc2ccccc2C(=O)N2CCN(CC3CC3)CC2)CC1	-1%	2%	-3%	2%	-27%
COc1cccc(-c2nc(C(=O)NCC3CCCO3)cc3c2[nH]c2ccccc23)c1 (stereo not drawn)	-2%	13µM*	-1%	21%	.
COc1ccc(OC)c(-c2nc(C(=O)NCC3CCCO3)cc3c2[nH]c2ccccc23)c1 (stereo not drawn)	-13%	?	1%	42%	.
c1ccc(Nc2nc3ccccc3n3nnnc23)cc1	21µM*	-3%	?	-1%	6%
Fc1cccc(Nc2nc3ccccc3n3nnnc23)c1	-11%	9%	-5%	3%	?
CC1=C(C#N)c2nc(N)c(C#N)c(C)c2/C1=C\c1ccc(OCC(=O)O)c(Cl)c1	?	-8%	?	23%	19%[15.4 µM]
N#CC(C#N)=NNc1ccc(S(=O)(=O)N2CCCCC2)cc1	1%	25µM*	7%	-14%	6%
O=C(Nc1cccc(NC(=O)c2ccccc2Cl)c1)c1ccc([N+](=O)[O-])o1	4%	40µM*	0%	-12%	-20%
O=C(Nc1cccc([N+](=O)[O-])c1)c1ccc([N+](=O)[O-])o1	.	.	.	.	-4%
CC(=O)c1cccc(NC(=O)c2ccc(-c3ccccc3[N+](=O)[O-])o2)c1	4%	45µM*	0%	-4%	19%[15.4 µM]

Rewritten field by field: 4 of the compounds above.
> CC1=C(C#N)c2nc(N)c(C#N)c(C)c2/C1=C\c1ccc(OCC(=O)O)c(Cl)c1
  Rango dissoc inh: ? | gsp antag: -8% | Rango-impB inh: ? | ASM inhibitor: 23% | gsp ag: 19%[15.4 µM]
> N#CC(C#N)=NNc1ccc(S(=O)(=O)N2CCCCC2)cc1
  Rango dissoc inh: 1% | gsp antag: 25µM* | Rango-impB inh: 7% | ASM inhibitor: -14% | gsp ag: 6%
> O=C(Nc1cccc(NC(=O)c2ccccc2Cl)c1)c1ccc([N+](=O)[O-])o1
  Rango dissoc inh: 4% | gsp antag: 40µM* | Rango-impB inh: 0% | ASM inhibitor: -12% | gsp ag: -20%
> O=C(Nc1cccc([N+](=O)[O-])c1)c1ccc([N+](=O)[O-])o1
  Rango dissoc inh: . | gsp antag: . | Rango-impB inh: . | ASM inhibitor: . | gsp ag: -4%
